In US20220220224A1 (Hoffmann-La Roche, published 2022):

Tests used:
[1] = target: T1, recombinant biotinylated monomeric Fc fusion of murine Folate Receptor 1 (mu FolR1 ECD-AcTev-Fcknob-Avitag … (murine, UniProt P0DOX5 223-449 = IgG part, biotin on the C-terminal Avi tag)); assay: SPR ProteOn, Fab analyte on immobilized antigen-Fc
T1 construct: also called muFolR1-Fc; murine FolR1
Description: Immobilization of antigens (ligand): Recombinant antigens were diluted with PBST (10 mM phosphate, 150 mM sodium chloride pH 7.4, 0.005% Tween 20) to 10 μg/ml, then injected at 30 μl/minute in vertical orientation. Injection of analytes: For ‘one-shot kinetics’ measurements, injection direction was changed to horizontal orientation, two-fold dilution series of purified Fab (varying concentration ranges) were injected simultaneously along separate channels 1-5, with association times of 150 or 200 s, and dissociation times of 200 or 600 s, respectively. Buffer (PBST) was injected along the sixth channel to provide an “in-line” blank for referencing. Association rate constants (kₒₙ) and dissociation rate constants (koff) were calculated using a simple one-to-one Langmuir binding model in ProteOn Manager v3.1 software by simultaneously fitting the association and dissociation sensorgrams. The equilibrium dissociation constant (KD) was calculated as the ratio koff/kₒₙ.

[2] = target: T2, recombinant biotinylated monomeric Fc fusion of human Folate Receptor 1 (huFolR1 ECD-AcTev-Fcknob-Avi tag … (human, UniProt P0DOX5 223-449 = IgG part, biotin on the C-terminal Avi tag)); assay: SPR ProteOn, Fab analyte on immobilized antigen-Fc
T2 construct: also called huFolR1-Fc; human FolR1-Fc
Description: (§1) Immobilization of antigens (ligand): Recombinant antigens were diluted with PBST (10 mM phosphate, 150 mM sodium chloride pH 7.4, 0.005% Tween 20) to 10 μg/ml, then injected at 30 μl/minute in vertical orientation. Injection of analytes: For ‘one-shot kinetics’ measurements, injection direction was changed to horizontal orientation, two-fold dilution series of purified Fab (varying concentration ranges) were injected simultaneously along separate channels 1-5, with association times of 200 s, and dissociation times of 600 s. Buffer (PBST) was injected along the sixth channel to provide an “in-line” blank for referencing. Association rate constants (kₒₙ) and dissociation rate constants (koff) were calculated using a simple one-to-one Langmuir binding model in ProteOn Manager v3.1 software by simultaneously fitting the association and dissociation sensorgrams. The equilibrium dissociation constant (KD) was calculated as the ratio koff/kₒₙ.

[3] = target: T1, recombinant biotinylated monomeric Fc …; assay: SPR ProteOn, Fab analyte on immobilized antigen-Fc; remark: listed apart in the source
Description: as §1

[4] = target: T2, recombinant biotinylated monomeric Fc …; assay: SPR Biacore, affinity (monovalent), antibody captured via anti-Fab
Description: (§2) Binding of FolR1 binders as IgG or in the T-cell bispecific format to different recombinant folate receptors (human FolR1, 2 and 3, murine FolR1 and cynomolgus FolR1; all as Fc fusions) was assessed by surface plasmon resonance (SPR). All SPR experiments were performed on a Biacore T200 at 25° C. with HBS-EP as running buffer (0.01 M HEPES pH 7.4, 0.15 M NaCl, 3 mM EDTA, 0.005% Surfactant P20, Biacore, Freiburg/Germany).
For affinity measurement, direct coupling of around 6000-7000 resonance units (RU) of the anti-human Fab specific antibody (Fab capture kit, GE Healthcare) was performed on a CM5 chip at pH 5.0 using the standard amine coupling kit (GE Healthcare). Anti-FolR1 IgGs or T cell bispecifics were captured at 20 nM with a flow rate of 10 μl/min for 20 or 40 sec, the reference flow cell was left without capture. Dilution series (6.17 to 500 nM or 12.35 to 3000 nM) of human or cyno Folate Receptor 1 Fc fusion were passed on all flow cells at 30 μl/min for 120 or 240 sec to record the association phase. The dissociation phase was monitored for 240 s and triggered by switching from the sample solution to HBS-EP. The chip surface was regenerated after every cycle using a double injection of 60 sec 10 mM Glycine-HCl pH 2.1 or pH 1.5. Bulk refractive index differences were corrected for by subtracting the response obtained on the reference flow cell 1. […]

[5] = target: T2, recombinant biotinylated monomeric Fc …; assay: SPR Biacore, avidity (bivalent, apparent KD), antigen-Fc on SA chip
Description: as §2
Recombinant biotinylated monomeric Fc fusions of human, cynomolgus and murine Folate Receptor 1 (FolR1-Fc) were directly coupled on a SA chip using the standard coupling instruction (Biacore, Freiburg/Germany). The immobilization level was about 300-400 RU. The anti-FolR1 IgGs or T cell bispecifics were passed at a concentration range from 2.1 to 500 nM with a flow of 30 μL/minutes through the flow cells over 180 seconds. The dissociation was monitored for 600 seconds. Bulk refractive index differences were corrected for by subtracting the response obtained on reference flow cell immobilized with recombinant biotinylated IL2 receptor Fc fusion. […] The binding curves resulting from the bivalent binding of the IgGs or T cell bispecifics were approximated to a 1:1 Langmuir binding and fitted with that model (which is not correct, but gives an idea of the avidity). […]

B1: 14E4 Fab (Fab, V domains shown)
VH: not shown
VL: EIVLTQSPGTLSLSPGERATLSCRASQSVSSSYLAWYQQKPGQAPRLLIYGASSRATGIPDRFSGSGSGTDSTLTISRLEPEDFAVYYCQQPTSSPITFGQGTKVEIK
notes: bacterial Fab
[1]
  Kd: 0.00609 µM

B2: 19E5 Fab (Fab, V domains shown)
VH: QVQLVQSGAEVKKPGASVKVSCKASGYTFTSYYMHWVRQAPGQGLEWMGIINPSGGSTSYAQKFQGRVTMTRDTSTSTVYMELSSLRSEDTAVYYCARGEWRRYTSFDYWGQGTLVTVSS
VL: QAVVTQEPSLTVSPGGTVTLTCGSSTGAVTTSNYANWVQEKPGQAFRGLIGGTNKRAPGTPARFSGSLLGGKAALTLSGAQPEDEAEYYCALWYSNLWVFGGGTKLTVL
notes: bacterial Fab
[2]
  Kd: 0.522 µM
[3]
  Kd: 0.0194 µM

B3: Farletuzumab (antibody, V domains shown)
VH: EVQLVESGGGVVQPGRSLRLSCSASGFTFSGYGLSWVRQAPGKGLEWVAMISSGGSYTYYADSVKGRFAISRDNAKNTLFLQMDSLRPEDTGVYFCARHGDDPAWFAYWGQGTPVTVSS
VL: DIQLTQSPSSLSASVGDRVTITCSVSSSISSNNLHWYQQKPGKAPKPWIYGTSNLASGVPSRFSGSGSGTDYTFTISSLQPEDIATYYCQQWSSYPYMYTFGQGTKVEIKR
[4]
  Kd: 0.0553 µM
[5]
  Kd: 0.00073 µM

Like-named read-outs stand apart in the source and are kept apart here.
